# Ab-91 heavy chain CDR variants: yeast mating affinities

From the AlphaSeq antibody data of Engelhart et al. 2022 (doi:10.1038/s41597-022-01779-4), copy in the FLAb collection.

Binding partner: SARS-CoV-2 spike HR2 peptide, sequence PDVDLGDISGINAS.

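Phage display of a naive human antibody library on the peptide gave the parent. AAYL51 was designed without a model: most single CDR substitutions and a random sample of double and triple ones. Affinity was read by AlphaSeq, a pooled yeast mating assay with surface-displayed partners. Binding brings cells together so that they mate, and sequencing counts the barcode pairs among the diploids. Read counts were normalised to the haploid input and turned into Kd by a linear fit to BCL2-family pairs of known affinity, for each replicate. There are three technical replicates.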

Parent: Ab-91, a human scFv built as VL, three GGGGS repeats, VH. Only the CDRs of the heavy chain vary.
VL: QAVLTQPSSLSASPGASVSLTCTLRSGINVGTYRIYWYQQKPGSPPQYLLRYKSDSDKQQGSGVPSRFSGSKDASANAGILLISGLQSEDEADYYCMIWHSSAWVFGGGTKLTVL
VH: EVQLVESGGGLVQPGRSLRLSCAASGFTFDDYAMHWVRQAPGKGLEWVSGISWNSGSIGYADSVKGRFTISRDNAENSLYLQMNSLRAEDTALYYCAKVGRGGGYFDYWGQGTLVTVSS

The parent's heavy chain CDRs are GFTFDDYAMH, GISWNSGSIGYADSVK, VGRGGGYFDY; each variant's own CDRs replace them letter for letter. Numbers give log10(Kd / nM), so 0 is 1 nM and 3 is 1 µM. Smaller is tighter. Replicates are averaged; those with no signal do not enter the mean. A pair that was not seen in any replicate is written "no signal"; this usually means weak binding, but a binder can also be missed. Empty control strains, which show no peptide, gave a signal in 21% of pairings with library AAYL51; the median was 4.54 and 95% of these signals were weaker than 3.26. No background was subtracted.

| # | CDR-H1 | CDR-H2 | CDR-H3 | mean log10 Kd (nM) | replicates with signal |
|---|---|---|---|---|---|
| 1 | GFTFDDTAMH | EISWNSGNIGYADSVK | VGRGGGYFDY | 3.32 | 1 of 3 |
| 2 | GFTFADYAMH | GISWNSGSIGSADSVH | VGRGGGYFDY | 5.11 | 1 of 3 |
| 3 | GFTFDDGAMH | GISWNSGSIQYADSVK | VGRGNGYFDY | 5.03 | 2 of 3 |
| 4 | GFTFDDPAMH | GISCNSKSIGYADSVK | VGRGGGYFDY | 5.75 | 2 of 3 |
| 5 | GFTFDDYAMH | GISWNSGSIWYADWVK | VGRGGGYLDY | 4.06 | 1 of 3 |
| 6 | GFTFDDYAMH | GISWNSGSIGYADSWK | TGRPGGYFDY | no signal | 0 of 3 |
| 7 | GWTSDDYAMH | GISWNSGSIGYADSVK | VGRGMGYFDY | 4.40 | 1 of 3 |
| 8 | GFTYDDYAMH | GISWNSGSIGYASSVK | VGRGGGYFDY | 2.43 | 1 of 3 |
| 9 | GMTFDDYAQH | GISWNSGSIGYADSVK | VGRDGGYFDY | 4.06 | 1 of 3 |
| 10 | GFRDDDYAMH | GISWNSGSIGYADSVK | VGRGVGYFDY | 4.98 | 2 of 3 |
| 11 | GFTFDDYLMH | GISWNSGSVGYADSVK | VGWGGGYFDY | no signal | 0 of 3 |
| 12 | GFTFDDYAMW | GISWNSGSIGYADLVK | VGRGGKYFDY | 5.47 | 1 of 3 |
| 13 | GFIFDDYAMH | GISWNSGSIKYAWSVK | VGRGGGYFDY | no signal | 0 of 3 |
| 14 | GFTFDDYRMH | GISWRSGSIGYADSVK | VGRGGGHFDY | no signal | 0 of 3 |
| 15 | GFTFDDYPMH | GISWNSGMIGYADSVK | FGRGGGYFDY | 2.48 | 3 of 3 |
| 16 | GFTFDDYAMW | GISWNSGQIGYADSVK | VGRGGGYFDY | 5.45 | 1 of 3 |
| 17 | GFTFDDYAMH | GDSWNSGSIGYADSVK | VGRGGGYDWY | 4.71 | 1 of 3 |
| 18 | GFTFDDYAMP | GISWNSGSIGQADSDK | VGRGGGYFDY | 4.50 | 1 of 3 |
| 19 | GFTFDDYAMH | GISWNSVGIGYADSFK | VGRGGGYFDY | no signal | 0 of 3 |
| 20 | GDTFDDYAMH | GITWNSGSIGYADSVK | VGRGGGYFVY | 5.09 | 1 of 3 |
| 21 | GFTFDDYAMH | GISWNSGSIGYAFSVK | TGRGGCYFDY | 3.77 | 2 of 3 |
| 22 | GFTFDDYAMH | GISWNGGSIGYADSVK | VKRGGGYFMY | 4.99 | 2 of 3 |
| 23 | DFTFYDYAMH | GISWNSGSIGYADSVK | VGRGGGYFDK | 5.27 | 3 of 3 |
| 24 | GFTFDDYAMH | GISQNSGSIGYADSVK | VRRGGGYDDY | 1.50 | 3 of 3 |
| 25 | GFTFDQYAMH | GISWNSGSIGRADSVK | VGRGGGYFDY | no signal | 0 of 3 |
| 26 | GTTFDDYAMH | GISWNSGSIGYAYSVK | FGRGGGYFDY | 5.33 | 2 of 3 |
| 27 | GFTFVDYAMH | GISWNSGSDGYADSNK | VGRGGGYFDY | 3.50 | 1 of 3 |
| 28 | GFTFDDYAFH | GISWNSGSIGVADSVK | VGRGGGYFRY | 5.92 | 2 of 3 |
| 29 | GFQFDGYAMH | GISWNSGSIGYAWSVK | VGRGGGYFDY | 2.72 | 3 of 3 |
| 30 | HFTFDDYAMH | GISWNSGMIGYAMSVK | VGRGGGYFDY | 4.73 | 2 of 3 |
| 31 | GFTFDFYAMH | GISWNSGSIGCADSVK | VGRGGGYFDY | no signal | 0 of 3 |
| 32 | GFTFDGYAMH | GISWNSGSIWYADSVK | VGRGGGAFDY | 4.25 | 3 of 3 |
| 33 | GFTFDDYAMH | GISWNSGSIGYCDSVK | VSRGGGYFDN | 4.86 | 3 of 3 |

The remaining entries, values ahead:

| # | mean log10 Kd (nM) | replicates with signal | CDR-H1 | CDR-H2 | CDR-H3 |
|---|---|---|---|---|---|
| 34 | 4.54 | 1 of 3 | GFTFDDYAMH | GISWFSGSKGYADDVK | VGRGGGYFDY |
| 35 | 3.28 | 2 of 3 | GFTFDAYAMH | GISWNSGSIGYADSVK | VGRGKGFFDY |
| 36 | 4.22 | 2 of 3 | GFTFDDYAMH | GISWNSHSIGYCDSTK | VGRGGGYFDY |
| 37 | 5.51 | 1 of 3 | KFTLDDIAMH | GISWNSGSIGYADSVK | VGRGGGYFDY |
| 38 | 3.86 | 3 of 3 | GFWFDDYAMH | GISWNSVSIGYCDSVK | VGRGGGYFDY |
| 39 | 4.70 | 3 of 3 | GFTFDDYAWH | RISWASGSIGYADSVK | VGRGGGYFDY |
| 40 | no signal | 0 of 3 | GFTFDDYAMH | GISWNSGSIGYADSVK | VGSGGGYYDY |
| 41 | 5.94 | 1 of 3 | GFTFDDYAMH | GINWNIGSIGYADWVK | VGRGGGYFDY |
| 42 | 3.77 | 1 of 3 | GFTFYDYAMH | EISWNSGSIGYADSVK | VGRGGGYFHY |
| 43 | no signal | 0 of 3 | GFTFDDYAMH | GISWNSGSSGYADTVK | VGRTGGYFDY |
| 44 | 1.04 | 3 of 3 | GFTFDDYAMH | GISWNSMSTGYADSVK | VGRGGGYFDY |
| 45 | 3.84 | 1 of 3 | GFTFDDYAMM | GISWNSGSIGYADSVK | VGRGGGYFDF |
| 46 | no signal | 0 of 3 | GFSFDDYAMH | PISWNSGSIGYADSVK | VGRGGGYFDY |
| 47 | 4.71 | 3 of 3 | GFTFDDYYMH | GISWNSGSIGYEDKVK | VGRGGGYFDY |
| 48 | 5.11 | 2 of 3 | GFTFDEYAMH | KLSWNSGSIGYADSVK | VGRGGGYFDY |
| 49 | no signal | 0 of 3 | GFNFDDDAMH | GISWNSGSIGYADSRK | VGRGGGYFDY |
| 50 | 5.10 | 2 of 3 | GFTFDTYAMH | GISWNSGSIGYAKSVK | MGRGGGYFDY |
| 51 | no signal | 0 of 3 | GFTFDDYNMH | GISWNSGSIGYMDSVK | VGRGGGYFDY |
| 52 | 4.46 | 1 of 3 | GFTFDDYAMH | GISWNSGSIGYAFSYK | VGRGGGYSDY |
| 53 | 3.39 | 3 of 3 | GFTFDDYAMH | GLSWNSGSIGYADDVK | VGTGGGYFDY |
| 54 | no signal | 0 of 3 | LLTFDDYAMH | GISWNSGPIGYADSVK | VGRGGGYFDY |
| 55 | no signal | 0 of 3 | GFNFDDLANH | GISWNSGSIGYADSVK | VGRGGGYFDY |
| 56 | 5.13 | 2 of 3 | GFTFDDYAMW | GISWNSLSIGYADSVK | VGRGGGYKDY |
| 57 | no signal | 0 of 3 | GFTFDDYAMH | GISWNSGSIGYADWVK | PGRGGGYFDT |
| 58 | 5.45 | 3 of 3 | GFTFDDYAMH | GISWNSFSIGYKDSVK | PGRGGGYFDY |
| 59 | 5.38 | 1 of 3 | GFTFDDYAMH | GISWNSGSITYADSVK | VGLGGGDFDY |
| 60 | no signal | 0 of 3 | GFTFYDYAMH | GQSWNSGSIGYPDSVK | VGRGGGYFDY |
| 61 | no signal | 0 of 3 | GFTFDDYAMH | GISWNSGSIGTADSVK | VGHGGGPFDY |
| 62 | no signal | 0 of 3 | GFTWDHYAMH | GISWNSGSIDYADSVK | VGRGGGYFDY |
| 63 | 4.81 | 2 of 3 | GFTFDDDAMH | GISWNSGSIGFADSVK | VGRGGDYFDY |
| 64 | 4.71 | 1 of 3 | GFTFDDCAMH | GISWNSNSIGYAWSVK | VGRGGGYFDY |
| 65 | 5.00 | 1 of 3 | GFTFDDYEMH | GISWNSQSIGYADSVK | VGRGGGYFDK |
| 66 | 2.78 | 3 of 3 | GFTFDDYAMH | GISWNSGSIGYDDSVG | VGRGGWYFDY |
| 67 | no signal | 0 of 3 | GFTFDDYMMH | GISMNSGSIGYADSVK | VGRGGGYFDY |

The 11 strongest on average among those seen in every replicate, once more:

| CDR-H1 | CDR-H2 | CDR-H3 | mean log10 Kd (nM) | replicates with signal |
|---|---|---|---|---|
| GFTFDDYAMH | GISWNSMSTGYADSVK | VGRGGGYFDY | 1.04 | 3 of 3 |
| GFTFDDYAMH | GISQNSGSIGYADSVK | VRRGGGYDDY | 1.50 | 3 of 3 |
| GFTFDDYPMH | GISWNSGMIGYADSVK | FGRGGGYFDY | 2.48 | 3 of 3 |
| GFQFDGYAMH | GISWNSGSIGYAWSVK | VGRGGGYFDY | 2.72 | 3 of 3 |
| GFTFDDYAMH | GISWNSGSIGYDDSVG | VGRGGWYFDY | 2.78 | 3 of 3 |
| GFTFDDYAMH | GLSWNSGSIGYADDVK | VGTGGGYFDY | 3.39 | 3 of 3 |
| GFWFDDYAMH | GISWNSVSIGYCDSVK | VGRGGGYFDY | 3.86 | 3 of 3 |
| GFTFDGYAMH | GISWNSGSIWYADSVK | VGRGGGAFDY | 4.25 | 3 of 3 |
| GFTFDDYAWH | RISWASGSIGYADSVK | VGRGGGYFDY | 4.70 | 3 of 3 |
| GFTFDDYYMH | GISWNSGSIGYEDKVK | VGRGGGYFDY | 4.71 | 3 of 3 |
| GFTFDDYAMH | GISWNSGSIGYCDSVK | VSRGGGYFDN | 4.86 | 3 of 3 |